The target in this assay is T1, CYP26A1 (Homo sapiens, UniProt O43174).
T1 sequence (O43174 1-497): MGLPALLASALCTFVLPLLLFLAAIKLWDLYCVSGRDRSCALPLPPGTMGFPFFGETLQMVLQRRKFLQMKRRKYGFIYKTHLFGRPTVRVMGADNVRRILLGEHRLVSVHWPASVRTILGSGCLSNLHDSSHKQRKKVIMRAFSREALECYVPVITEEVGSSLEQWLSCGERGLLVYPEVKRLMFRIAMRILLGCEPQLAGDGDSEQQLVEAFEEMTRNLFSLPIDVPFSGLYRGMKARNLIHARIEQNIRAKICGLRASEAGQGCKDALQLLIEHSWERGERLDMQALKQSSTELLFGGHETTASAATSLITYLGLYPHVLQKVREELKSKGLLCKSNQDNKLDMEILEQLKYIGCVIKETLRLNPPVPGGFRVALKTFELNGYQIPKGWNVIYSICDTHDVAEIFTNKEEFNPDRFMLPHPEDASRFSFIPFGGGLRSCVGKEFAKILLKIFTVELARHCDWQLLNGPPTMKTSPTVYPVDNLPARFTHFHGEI
As to the kind of experiment: Inhibition of CYP26A1-catalyzed tazarotenic acid sulfoxide formation. Conditions: read-out: CYP26A1 IC50, tazarotenic acid; recombinant CYP26A1; probe tazarotenic acid sulfoxide formation; ± standard error. The format is biochemical.

Structures are written as SMILES.

`Clc1cccc(C(c2ccc3[nH]cnc3c2)n2ccnc2)c1` (stereo not shown) [Liarazole]: the IC50 stood at 840 ± 870 nM.

Source of the values: PMC6628712 (Journal of enzyme inhibition and medicinal chemistry, 2016).
